Test results taken from ChEMBL document CHEMBL1156721, “Monoquaternary pyridinium salts with modified side chain-synthesis and evaluation on model of tabun- and paraoxon-inhibited acetylcholinesterase” (2008).

Columns and labels:
[1] = target: T1, Acetylcholinesterase (Rattus norvegicus) (UniProt P37136); test: Reactivation of 10 uM paraoxon inhibited AChE in rat brain homogenate; design: scale not given: the % may be the effect or the level left
T1 sequence (whole entry): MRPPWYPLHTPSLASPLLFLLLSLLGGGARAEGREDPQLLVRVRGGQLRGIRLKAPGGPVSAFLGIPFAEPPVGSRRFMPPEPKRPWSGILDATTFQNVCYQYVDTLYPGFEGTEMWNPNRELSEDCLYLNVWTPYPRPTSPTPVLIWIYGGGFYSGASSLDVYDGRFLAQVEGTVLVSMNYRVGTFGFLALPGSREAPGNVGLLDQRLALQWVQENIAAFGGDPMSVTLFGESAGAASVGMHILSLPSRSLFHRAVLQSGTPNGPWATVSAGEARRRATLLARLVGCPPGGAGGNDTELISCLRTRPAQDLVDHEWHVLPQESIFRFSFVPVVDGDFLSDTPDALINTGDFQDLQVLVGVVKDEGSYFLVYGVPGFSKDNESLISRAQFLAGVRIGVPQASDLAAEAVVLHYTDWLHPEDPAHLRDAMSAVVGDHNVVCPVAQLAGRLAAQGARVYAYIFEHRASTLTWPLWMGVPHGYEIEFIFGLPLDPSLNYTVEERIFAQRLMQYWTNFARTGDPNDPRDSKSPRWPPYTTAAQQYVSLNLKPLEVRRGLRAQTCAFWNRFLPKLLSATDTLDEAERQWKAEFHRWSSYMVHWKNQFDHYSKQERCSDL

[2] = target: T1, Acetylcholinesterase (Rattus norvegicus); test: Reactivation of 1000 uM paraoxon inhibited AChE in rat brain homogenate; design: scale not given: the % may be the effect or the level left

Structure (SMILES) | Activity [1] | Activity [2]
C=CC[n+]1cccc(/C=N/O)c1 | 0% | 0%
O/N=C/c1cccc[n+]1Cc1ccccc1 | 0% | 0%
NC(=O)c1cc[n+](COC[n+]2ccccc2/C=N/O)cc1 | 0% | –
O/N=C/c1ccc[n+](CCCc2ccccc2)c1 | 4% | 0%
CCC[n+]1ccccc1/C=N/O | 0% | 52%
CCC[n+]1cccc(/C=N/O)c1 | 0% | 0%
O/N=C/c1ccc[n+](CCc2ccccc2)c1 | 3% | 7%
O/N=C/c1cccc[n+]1CCCc1ccccc1 | 5% | 20%
CCC[n+]1ccc(/C=N/O)cc1 | 0% | 22%
O/N=C/c1cc[n+](Cc2ccccc2)cc1 | 0% | 0%
C=CC[n+]1ccccc1/C=N/O | 0% | 38%
O/N=C/c1cc[n+](C[n+]2ccc(/C=N/O)cc2)cc1 | 0% | 71%
O/N=C/c1cc[n+](CCc2ccccc2)cc1 | 0% | 2%
O/N=C/c1cccc[n+]1CCc1ccccc1 | 9% | 16%
O/N=C/c1cc[n+](CCCc2ccccc2)cc1 | 4% | 7%
O/N=C/c1ccc[n+](Cc2ccccc2)c1 | 0% | 0%
C=CC[n+]1ccc(/C=N/O)cc1 | 0% | 12%
